Laboratory results from US8765481B2, “Method for detecting peroxide explosives” (dated 2014).

Assay: Solubility of HMTD in ionic liquids (content via 1H NMR)
Details: sum of the two HMTD proton signals after normalization of an IL methyl group to 3

| SMILES | rel. HMTD integral |
| --- | --- |
| CCCCCC[n+]1ccccc1.F[B-](F)(F)F | 0.04 |
| CCCC[n+]1cccc(C)c1.F[B-](F)(F)F | 0.23 and 0.17 |
| CCCC[n+]1ccc(C)cc1.F[B-](F)(F)F | 0.70 |
| CCn1cc[n+](C)c1.CS(=O)(=O)[O-] | 0.48 |
| CCCC[N+]1(C)CCCC1.O=S(=O)([O-])C(F)(F)F | 0.17 |

Several values for one entry are separate records, joined by “and”; a condition that tells them apart may be missing. Identical values can stand only once. Some compounds may have been tested in ways that are not shown here.
